Only a part of the results on these compounds is given; other tests are left out.
Columns and labels:
Enterobacter cloacae PB2 = experiment: Degradation of PETN by growing cells
PETN reductase [1] = molecular target: T1, PETN reductase (Enterobacter cloacae, UniProt P71278); experiment: Apparent Km of PETN reductase for nitrate ester substrates; details: read-out: apparent Km for EGDN; EGDN concentrations between 0.5 and 2.5 mM
PETN reductase [2] = molecular target: T1, PETN reductase; experiment: Nitrite liberation / reaction products of purified PETN reductase with NADPH; details: in the presence of NADPH

Protein sequences, listed by entry. Tags and fused reporters are not part of them. Residues count along the entry.
UniProt P71278, 2-365 limits assumed: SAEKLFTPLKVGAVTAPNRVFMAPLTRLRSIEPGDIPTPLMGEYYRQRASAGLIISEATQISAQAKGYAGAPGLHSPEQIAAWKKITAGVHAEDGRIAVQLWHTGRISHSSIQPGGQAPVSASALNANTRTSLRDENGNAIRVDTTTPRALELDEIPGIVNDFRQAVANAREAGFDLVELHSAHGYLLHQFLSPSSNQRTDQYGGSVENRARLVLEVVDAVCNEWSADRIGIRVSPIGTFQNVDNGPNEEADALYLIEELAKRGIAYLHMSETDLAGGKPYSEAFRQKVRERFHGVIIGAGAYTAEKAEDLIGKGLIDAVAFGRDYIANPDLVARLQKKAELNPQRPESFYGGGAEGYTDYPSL

| Structure (SMILES) | specific degradation rate of PETN by growing cells (Enterobacter cloacae PB2) | Km (PETN reductase [1]) [µM] | liberation of nitrite by PETN reductase (PETN reductase [2]) |
| --- | --- | --- | --- |
| O=[N+]([O-])OCC(CO[N+](=O)[O-])(CO[N+](=O)[O-])CO[N+](=O)[O-] | 1.03 mmol PETN (g protein)^-1 h^-1 | – | – |
| O=[N+]([O-])OCCO[N+](=O)[O-] | – | 2000 | liberate nitrite |

From US5928859A, “Detection and biodegradation of explosives” (dated 1999)
